Patent US9439918B2 (priority 2008, dated 2016)

System: Salmonella spp. (20)
Test: MIC, CLSI broth microdilution
Assay type: cell-based

In the case of `CCC[C@@H]1C[C@@H](C(=O)N[C@@H]([C@H]2O[C@H](SC)[C@H](O)[C@@H](O)[C@H]2O)[C@H](C)Cl)N(C)C1` [Clindamycin], the MIC50 was > 4 µg/mL and the MIC90 was > 4 µg/mL.
